Test results: patent publication US6403605B1, “Methods for the normalization of sexual response and amelioration of long term genital tissue degradation” (Queen's University at Kingston, priority 1998, dated 2002)

Experiment: Pharmacokinetic evaluation of apomorphine (FIG. 1, mean plasma concentrations after sub-cutaneous and sublingual doses)
Conditions: subcutaneous delivery

SMILES: CN1CCc2cccc3c2[C@H]1Cc1ccc(O)c(O)c1-3 [Apomorphine, (R)-5,6,6a,7-tetrahydro-6-methyl-(4H)-dibenzo[de,g]quinoline-10,11-diol]
- time required to reach maximum blood serum levels: approximately 15 minutes
